Measurements as given in patent publication US20170267750A1, “Method of Treating Ovarian and Renal Cancer Using Antibodies Against T Cell Immunoglobulin Domain and Mucin Domain 1 (TIM-1) Antigen” (Celldex Therapeutics, Inc., priority 2005, published 2017).
pKd: −log10 of the molar value.

Columns and labels:
[1] = molecular target: TIM-1 antigen, soluble extracellular domain of TIM-1 (CG57008-02) with a V5-HIS tag (human) (UniProt Q96D42); assay: BIAcore 2000, 25 C, mAb captured on goat anti-human surface, TIM-1 antigen injected at 292 nM
[2] = molecular target: TIM-1 (T cell, immunoglobulin domain and mucin domain 1), cell membrane-bound (human) (UniProt Q96D42); assay: FACS on polarized human CD4+ Th2 cells, 10 ug/mL mAb, goat anti-human PE
[3] = molecular target: TIM-1 (T cell, immunoglobulin domain and mucin domain 1), cell membrane-bound (human) (UniProt Q96D42); assay: FACS on ACHN cells, normalised to isotype control pK16
[4] = molecular target: TIM-1 (T cell, immunoglobulin domain and mucin domain 1), cell membrane-bound (human) (UniProt Q96D42); assay: cell-based or functional assay

## anti-TIM-1 monoclonal antibody 2.45
[1]
  pKd: 8.94
[2]
  Geometric mean of fluorescence intensity: 42.4
[3]
  Geo Mean Ratio (relative to negative control): 4.3
[4]
  IL-4 release by CD4+ Th1 cells, Percentage of Control Antibody (% of control antibody): 39.8
  IL-4 release by CD4+ Th2 cells, Percentage of Control Antibody (% of control antibody): 25.7
  IL-5 release by CD4+ Th1 cells, Percentage of Control Antibody (% of control antibody): 90.2
  IL-5 release by CD4+ Th2 cells, Percentage of Control Antibody (% of control antibody): 149
  IL-10 release by CD4+ Th1 cells, Percentage of Control Antibody (% of control antibody): 84
  IL-10 release by CD4+ Th2 cells, Percentage of Control Antibody (% of control antibody): 56
  IL-13 release by CD4+ Th1 cells, Percentage of Control Antibody (% of control antibody): 96.2
  IL-13 release by CD4+ Th2 cells, Percentage of Control Antibody (% of control antibody): 86.8
  INF γ release by CD4+ Th1 cells, Percentage of Control Antibody (% of control antibody): 101
  INF γ release by CD4+ Th2 cells, Percentage of Control Antibody (% of control antibody): 25.7
